The values that follow are results of earlier work, collected in PMC3350394, “Kinetic analysis and test-retest variability of the radioligand [^11C](R)-PK11195 binding to TSPO in the human brain - a PET study in control subjects” (EJNMMI Research, 2012).

By UniProt entry, the sequences of proteins in these tests, tags left out.
UniProt P30536, whole entry: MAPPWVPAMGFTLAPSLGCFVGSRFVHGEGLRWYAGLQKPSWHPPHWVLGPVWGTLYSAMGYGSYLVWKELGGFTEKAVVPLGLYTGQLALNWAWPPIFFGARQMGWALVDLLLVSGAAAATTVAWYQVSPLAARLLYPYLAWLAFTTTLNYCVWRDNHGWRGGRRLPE

In the data set the target is TSPO (Homo sapiens, UniProt P30536). Also noted: from tissue; host or cells: living human brain (in vivo PET in six control subjects); method as in PMID 6667063. The note with it: human brain tissue in vitro; cited from earlier work.

In general, Kd refers to the concentration at which binding is half-saturated. For `CCC(C)N(C)C(=O)c1cc2ccccc2c(-c2ccccc2Cl)n1` (stereo not shown) [[^3 H]PK11195, 1-(2-chlorophenyl)-N-methyl-N-(1-methylpropyl)-3-isoquinoline carboxamide], the Kd was 4.3 to 6.6 nM.
